Measurements as given in US12551487B2, “PI3K inhibitor for use in the therapy of b cell lymphoma” (Convalife (Shanghai) Co. Limited, priority 2019, dated 2026).
Several values for one entry are separate records, joined by “and”; a condition that tells them apart may be missing. Identical values can stand only once.

Tested on: patients with relapsed or refractory B cell lymphoma
Assay: Clinical study of daily oral compound in patients with relapsed or refractory B cell lymphoma (dose cohorts 50-400 mg daily)
Conditions: per patient

Drug Holiday (Cohort 1, 50 mg daily): 14 days and 16 days | Drug Holiday (Cohort 3, 200 mg daily): 20 days | Drug Holiday: event causing it (Cohort 3, 200 mg daily): infection) | Drug Holiday (Cohort 4, 400 mg daily): 42 days and 28 days and 16 days
SMILES: c1cc(-c2nc(N3CCOCC3)c3oc4ncc(CN5C[C@@H]6C[C@H]5CO6)cc4c3n2)c2cc[nH]c2c1 [Compound A, 4-(1H-Indol-4-yl)-6-(morpholin-4-yl)-12-[(1S,4S)-2-oxa-5-azabicyclo[2.2.1]heptan-5-ylmethyl]-8-oxa-3,5,10-triazatricyclo[7.4.0.0^2,7]trideca-1(13),2(7),3,5,9,11-hexaene]
